Data as given in PMC11345774, “Discovery of Novel, Selective, and Nonbasic Agonists for the Kappa-Opioid Receptor Determined by Salvinorin A-Based Virtual Screening” (Journal of Medicinal Chemistry, 2024).

Amino acid sequences for entries named in this document (tags omitted). A change or cut given only in a name is not applied to a line headed by its entry.
UniProt P41145: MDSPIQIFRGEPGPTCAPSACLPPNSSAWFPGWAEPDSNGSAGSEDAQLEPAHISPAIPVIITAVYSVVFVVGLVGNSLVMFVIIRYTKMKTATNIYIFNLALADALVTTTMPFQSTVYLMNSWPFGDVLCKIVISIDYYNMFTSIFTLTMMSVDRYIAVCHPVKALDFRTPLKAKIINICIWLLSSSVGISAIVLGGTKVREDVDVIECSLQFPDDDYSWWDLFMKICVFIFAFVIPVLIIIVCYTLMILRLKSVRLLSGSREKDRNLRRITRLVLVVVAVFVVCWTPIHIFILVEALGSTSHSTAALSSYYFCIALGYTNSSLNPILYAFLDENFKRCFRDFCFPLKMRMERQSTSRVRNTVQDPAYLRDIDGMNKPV

Biological target: human KOR (Homo sapiens, UniProt P41145)
Test: PathHunter β-arrestin2 recruitment assay, U2OS-hKOR-β-arrestin2 cells
Type: cell-based
Settings: relative to maximal effect of U69,593 (as 100%)

Question: `CN(C(=O)Cc1ccccc1)[C@H]1CC[C@@]2(CCCO2)C[C@@H]1N1CCCC1` was tested. Which “β-arrestin2 recruitment Emax” value did it give?
Answer: 100%
